How the values were obtained:
[1] = tested on: activated peripheral blood CD4+ T-lymphocytes; assay: Caspase activation (FITC-VAD-FMK staining, flow cytometry) in activated primary CD4+ T cells; format: cell-based, human; conditions: 24 hours pre-incubation (IRX-2 1:3, IL-2 100 IU/mL, IL-7/IL-15 10 ng/mL)
Source text: (§1) The head and neck squamous cell carcinoma (H&NSCC) cell line […] was established in Applicants' laboratory and maintained as previously described. It was retrovirally transfected with the human FasL gene obtained from Dr. S. Nagata (Osaka Biosciences Institute, Osaka, Japan) as previously reported. Supernatants of transfected PCI-13-cells (PCI-13-FasL), which contained both sFasL and the 42 kDa membranous form of FasL, were used as a source of tumor-derived microvesicles (MV). Jurkat cells were obtained from American Tissue Culture Collection (ATCC, Manassas, Va.) and were transfected with CD8. […]
(§2) Four color flow cytometry was performed using a […] (Beckman Coulter) equipped with Expo32 software (Beckman Coulter). […] Data was analyzed using Coulter EXPO 32vl.2 analysis software.
(§3) Total cellular Caspase activity was tested by intracellular staining of activated caspases using a pan caspase inhibitor, CASPACE FITC-VAD-FMK In Situ Marker (Promega, Madison, Wis.). […] Then cells were stained for cell surface receptors, fixed with 1% paraformaldehyde and analyzed by flow cytometry. The specific activation of caspase-3 and caspase-7 was measured using the VYBRANT FAM caspase-3 and -7 Assay Kit from Invitrogen (Carlsbad, Calif.) according to the manufacturers' instructions. […]

H&NSCC tumor = conditions: published studies (De Stefani, Timar); cited from earlier work
[2] = tested on: activated peripheral blood CD8+ T-lymphocytes; assay: Caspase activation (FITC-VAD-FMK staining, flow cytometry) in activated primary CD8+ T cells; format: cell-based, human; conditions: 24 hours pre-incubation (IRX-2 1:3, IL-2 100 IU/mL, IL-7/IL-15 10 ng/mL)
Source text: as §1, §2, §3

[3] = Table 2A MV-induced apoptosis, then 10 μg MV 24 hours
[4] = Table 2B CH-11 Ab-induced apoptosis, then 400 ng/mL CH-11 Ab 24 hours

IL-2: human recombinant cytokine, purchased from Peprotech
mean % of FITC-VAD-FMK+ cells ± SD [1, 3]: 22.2 ± 2.7% | mean % of FITC-VAD-FMK+ cells ± SD [1, 4]: 31.7 ± 3.0% | histopathology findings, treated tumor vs control tumor (H&NSCC tumor): ↑ LI, ↑ necrosis, ↑ fibrosis | mean % of FITC-VAD-FMK+ cells ± SD [2, 3]: 21.9 ± 2.7% | mean % of FITC-VAD-FMK+ cells ± SD [2, 4]: 44.2 ± 6.9%
